Test results published in ChEMBL document CHEMBL2057208, “Benzoylbenzimidazole-based selective inhibitors targeting Cryptosporidium parvum and Toxoplasma gondii calcium-dependent protein kinase-1” (Bioorg Med Chem Lett, 2012).

Tests used:
[1] = Selectivity ratio of IC50 for human ABL to IC50 for Cryptosporidium parvum CDPK1
[2] = Selectivity ratio of IC50 for human ABL to IC50 for Toxoplasma gondii CDPK1
[3] = Selectivity ratio of IC50 for human SRC to IC50 for Cryptosporidium parvum CDPK1
[4] = Selectivity ratio of IC50 for human SRC to IC50 for Toxoplasma gondii CDPK1

- Ratio IC50 [1]: > 200
- Ratio IC50 [3]: > 200
Compound: CN1CCN(CCn2c(N)nc3ccc(C(=O)c4ccccc4)cc32)CC1
- Ratio IC50 [2]: > 200
- Ratio IC50 [4]: > 200
